As usually defined, the IC50 is the midpoint of a concentration-inhibition curve. Higher therefore signals weaker potency in that assay.

The assay concerns the target T1, Proteinase-activated receptor 1 (Homo sapiens, UniProt P25116).
T1 sequence (P25116 whole entry): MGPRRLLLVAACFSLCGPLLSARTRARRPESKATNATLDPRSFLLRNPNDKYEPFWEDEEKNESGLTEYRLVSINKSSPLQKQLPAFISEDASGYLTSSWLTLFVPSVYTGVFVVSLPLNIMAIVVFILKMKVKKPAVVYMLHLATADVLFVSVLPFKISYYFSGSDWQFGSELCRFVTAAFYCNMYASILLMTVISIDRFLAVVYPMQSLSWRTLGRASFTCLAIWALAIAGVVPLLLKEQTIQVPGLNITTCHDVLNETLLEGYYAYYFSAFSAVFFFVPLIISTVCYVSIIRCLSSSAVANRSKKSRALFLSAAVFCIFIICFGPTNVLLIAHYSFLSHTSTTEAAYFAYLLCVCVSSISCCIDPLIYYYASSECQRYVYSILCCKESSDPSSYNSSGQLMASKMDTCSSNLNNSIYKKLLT
Put plainly: Inhibition of PAR1 (unknown origin).

`COc1ccc(-c2c(CO)n(Cc3ccccc3Cl)c3ccc(OC(F)(F)F)cc23)cn1` yielded an IC50 above 30 µM. Turning to `CSc1ncc(-c2c(CO)n(Cc3ccccc3Cl)c3ccc(OC(F)(F)F)cc23)cn1`, the IC50 was above 30 µM.
